How the values were obtained:
[1] = Systemic toxicity observation in additional PDX models (Example 10, paper example); format: in vivo, mice; conditions: 20 mg/kg BCV intraperitoneally twice weekly
Procedure: (§1) The study is composed of two groups of 10 PDX mice per group. The first group is administered with 20 mg/kg of BCV, and the second group with the vehicle only. BCV is administered intraperitoneally twice weekly from day 5 to day 28 post-implantation.

[2] = tested on: GBM39 cells derived from a GBM patient; test: Orthotopic GBM PDX model with GBM39 cells, BLI and Kaplan-Meier survival (Example 9); format: in vivo, mice
SNU-466 = test: CellTiter-Glo (CTG) cytotoxicity assay; format: cell-based; conditions: Homo sapiens, 120 h, 5 days of culture
Procedure: (§2) The in vitro cytotoxicity of BCV against various human GBM cell lines shown in Table 1 was evaluated by the CellTiter-GloTM (CTG) assay (Promega, Wisconsin, USA). The CTG assay measures the number of viable cells in culture by quantifying intracellular adenosine triphosphate (ATP), an indicator of metabolic activity, by bioluminescence. Specifically, various concentrations of BCV were added to 96-well plates in which GBM cells were plated at a concentration of 2 x 10^3 cells in each medium shown in Table 1, and after 5 days of culture at 37°C and 5% CO2, the cells were treated with CTG reagent and lysed. The fluorescence signal was measured using an Envision™ plate reader (PerkinElmer, Connecticut, USA). Cytotoxicity was evaluated as a percentage of the control fluorescence signal. A dose-response curve was generated by plotting the percentage of cytotoxicity against the drug concentration using GraphPad Prism (GraphPad Software, Massachusetts, USA). Furthermore, the 50% inhibitory concentration (IC50 value) of BCV against various GBM cell lines was determined to evaluate the cytotoxic effect. All assays were performed in duplicate.

LN-229 = test: CellTiter-Glo (CTG) cytotoxicity assay; format: cell-based; conditions: Homo sapiens, 120 h, 5 days of culture
Procedure: as §2

T98G = test: CellTiter-Glo (CTG) cytotoxicity assay; format: cell-based; conditions: Homo sapiens, 120 h, 5 days of culture
Procedure: as §2

LN-18 = test: CellTiter-Glo (CTG) cytotoxicity assay; format: cell-based; conditions: Homo sapiens, 120 h, 5 days of culture
Procedure: as §2

A-172 = test: CellTiter-Glo (CTG) cytotoxicity assay; format: cell-based; conditions: Homo sapiens, 120 h, 5 days of culture
Procedure: as §2

KALS-1 = test: CellTiter-Glo (CTG) cytotoxicity assay; format: cell-based; conditions: Homo sapiens, 120 h, 5 days of culture
Procedure: as §2

AM-38 = test: CellTiter-Glo (CTG) cytotoxicity assay; format: cell-based; conditions: Homo sapiens, 120 h, 5 days of culture
Procedure: as §2

U-87MG = test: CellTiter-Glo (CTG) cytotoxicity assay; format: cell-based; conditions: Homo sapiens, 120 h, 5 days of culture
Procedure: as §2

SNU-1105 = test: CellTiter-Glo (CTG) cytotoxicity assay; format: cell-based; conditions: Homo sapiens, 120 h, 5 days of culture
Procedure: as §2

KNS-42 = test: CellTiter-Glo (CTG) cytotoxicity assay; format: cell-based; conditions: Homo sapiens, 120 h, 5 days of culture
Procedure: as §2

U-138 MG = test: CellTiter-Glo (CTG) cytotoxicity assay; format: cell-based; conditions: Homo sapiens, U138-MG, 120 h, 5 days of culture
Procedure: as §2

[3] = PK study of BCV in mice, plasma concentration (Example 5); format: in vivo, Female C57BL/6 mice; conditions: female, C57BL/6, mouse, ip, estimated for 10 mg/kg intraperitoneal in mice from the average of day 1 and 6-day continuous 13 mg/kg results
Procedure: Female C57BL/6 mice were administered intraperitoneally with BCV at 13 mg/kg (n=3) and, after continuous administration of the same dose for 6 days, blood samples were collected at 0.5, 1, 2, 4, 8, 12, and 24 hours. The plasma BCV concentration obtained from K2EDTA-treated samples was quantified by a previously reported MC-MS/MS method (Biomed Chromatogr. 2021 35:e5061). […] Based on the above, the intraperitoneal administration of 10 mg/kg BCV, 20 mg/kg BCV, and 40 mg/kg BCV to mice in Examples 1 to 4 (including monotherapy or combination therapy) can be converted to intravenous administration of 20 mg/body BCV, 40 mg/body BCV, and 80 mg/body BCV to humans, respectively.

[4] = tested on: various human GBM cell lines; test: CellTiter-Glo (CTG) cytotoxicity assay, all 11 cell lines together; format: cell-based; conditions: median over the 11 human GBM cell lines
Procedure: as §2

[5] = tested on: GBM12, GBM14, GBM26, or GBM43 cells derived from GBM patients; test: Orthotopic GBM PDX models with additional patient cells, BLI and survival (Example 10, paper example); format: in vivo, mice
Procedure: as §1

[6] = tested on: U87MG human glioblastoma (GBM) cell line; test: BCV and TMZ combination in U87MG GBM animal model, BLI and survival rate (Example 2)
[7] = Systemic toxicity observation in GBM6 PDX mice (Example 4); format: in vivo; conditions: 20 mg/kg BCV intraperitoneally twice weekly
[8] = tested on: U-87MG/MGMT monoclonal cells A8-1; test: Cytotoxicity test on MGMT-overexpressing U-87MG monoclonal cells (Example 7); format: cell-based, human; conditions: A8-1 cells; higher than parent strain
Procedure: as §2, with “A dose-response curve was generated by plotting the percentage of cytotoxicity against the drug concentration using GraphPad Prism (GraphPad Software, Massachusetts, USA). Furthermore, the 50% inhibitory concentration (IC50 value) of BCV against various GBM cell lines was determined to evaluate the cytotoxic effect. All assays were performed in duplicate.” left out
(§3) To further clarify the effect of MGMT expression on sensitivity to BCV, the MGMT gene was forcibly expressed in the U-87MG cell line using a lentivirus as a vector. […] The MGMT expression level was evaluated using quantitative polymerase chain reaction (PCR) and Western blotting.
(§4) Monoclonal cells of the U-87MG cell line with forced expression of the MGMT gene were generated from U-87MG/MGMT pooled cells using the limiting dilution method in a 96-well plate. […] MGMT expression in U-87MG/MGMT monoclonal cells was identified by quantitative PCR and Western blotting in the same manner as described above. […]

[9] = tested on: U-87MG/MGMT monoclonal cells E7-3; test: as above; format: cell-based, human; conditions: E7-3 cells; higher than parent strain
Procedure: as §2, with “A dose-response curve was generated by plotting the percentage of cytotoxicity against the drug concentration using GraphPad Prism (GraphPad Software, Massachusetts, USA). Furthermore, the 50% inhibitory concentration (IC50 value) of BCV against various GBM cell lines was determined to evaluate the cytotoxic effect. All assays were performed in duplicate.” left out
as §3, §4

[10] = Systemic toxicity observation in GBM model mice (Example 2); format: in vivo, nude mice; conditions: any of the BCV monotherapy (10, 20 mg/kg) and combination therapy (with 2 mg/kg TMZ) groups
[11] = tested on: GBM6 cells derived from a GBM patient; test: Orthotopic GBM PDX model with GBM6 cells (unmethylated MGMT promoter), BLI and survival rate (Example 4); format: in vivo, mice
[12] = tested on: U87MG human glioblastoma (GBM) cell line; test: Antitumor effect in U87MG GBM animal model, bioluminescence imaging (Example 1); format: in vivo, nude mice
Procedure: (§5) The study was composed of four groups of 8 to 10 GBM model mice per group. […] BCV and the vehicle were administered intraperitoneally twice weekly for 5 weeks, starting on day 7 post-GBM implantation. During the administration period, to evaluate tumor growth in the brain, bioluminescence imaging (BLI) was performed twice weekly using the IVIS Lumina imaging system, 10 minutes after intraperitoneal administration of 150 mg/kg luciferin under ketamine-xylazine anesthesia.

[13] = Body weight and systemic toxicity observation in GBM model mice (Example 1); format: in vivo, nude mice
Procedure: as §5

[14] = 20 mg/kg BCV intraperitoneally twice weekly

## CCCCCCCCCCCCCCCCOCCCOP(=O)(O)CO[C@H](CO)Cn1ccc(N)nc1=O [BCV, [(2S)-1-(4-amino-2-oxopyrimidin-1-yl)-3-hydroxypropan-2-yl]oxymethyl-(3-hexadecoxypropoxy)phosphinic acid]
[1]
  systemic toxicity symptoms: No remarkable systemic toxicity symptoms are observed
[2]; [14]
  individuals alive on day 33 post-GBM implantation: 65%
[2]; 20 mg/kg BCV intraperitoneally twice weekly day 5 to day 28, between days 21 and 28 post-implantation
  normalized BLI compared to the vehicle group: significant (P < 0.0001) decrease in normalized BLI
[2]; 20 mg/kg BCV, P < 0.01, vehicle group 25.5 days
  median survival time: 50.0 days
SNU-466
  IC50: 1930 nM
LN-229
  IC50: 7470 nM
T98G
  IC50: 810 nM
LN-18
  IC50: 960 nM
A-172
  IC50: 2200 nM
KALS-1
  IC50: 30 nM
AM-38
  IC50: 1770 nM
U-87MG
  IC50: 5860 nM
SNU-1105
  IC50: 9300 nM
KNS-42
  IC50: 73800 nM
U-138 MG
  IC50: 8270 nM
[3]; read-out: drug exposure, AUCinf
  AUC(0-inf): 2910 ng·h/mL
[3]; read-out: drug exposure, Cmax
  Cmax: 1940 ng/mL
[4]
  IC50: 2200 nM
[5]; [14]
  survival period compared to the vehicle group: longer survival period
[5]; 20 mg/kg BCV intraperitoneally twice weekly day 5 to day 28
  normalized BLI compared to the vehicle group: significant decrease in normalized BLI
[6]; 10 mg/kg BCV monotherapy
  survival rate on day 37 post-GBM implantation: no individuals survived
[6]; 10 mg/kg BCV monotherapy, intraperitoneally twice weekly day 8 to day 38
  growth of intracerebral GBM (normalized BLI) compared to the vehicle group: tendency to suppress the growth of intracerebral GBM compared to the vehicle group, although the difference was not statistically significant
[6]; 20 mg/kg BCV monotherapy
  survival rate on day 37 post-GBM implantation: 50%
[6]; 20 mg/kg BCV monotherapy, days 23 and 28 post-implantation
  normalized BLI compared to the vehicle group: significant (P < 0.05) decrease in normalized BLI
[7]
  systemic toxicity symptoms: no remarkable systemic toxicity symptoms were observed
[8]
  sensitivity to BCV relative to the parent strain U-87MG cells: 2.47 times
[9]
  sensitivity to BCV relative to the parent strain U-87MG cells: 16.28 times
[10]
  systemic toxicity symptoms: no remarkable systemic toxicity symptoms were observed
[11]; [14]
  individuals survived on day 27 post-GBM implantation: 60%
[11]; 20 mg/kg BCV intraperitoneally twice weekly day 6 to day 30, between days 13 and 23 post-implantation
  normalized BLI compared to the vehicle group: significant (P < 0.05 to P < 0.01) decrease in normalized BLI
[12]; 10 mg/kg BCV intraperitoneally twice weekly for 5 weeks from day 7 post-implantation
  normalized BLI (proliferation of GBM cells in the brain) compared to the vehicle group: tendency to suppress the growth of intracerebral GBM compared to the vehicle group, although the difference was not statistically significant
[12]; 20 mg/kg BCV intraperitoneally twice weekly for 5 weeks, days 28 and 35 post-implantation
  normalized BLI (proliferation of GBM cells in the brain) compared to the vehicle group: significant (P < 0.05) decrease in normalized BLI
[12]; 40 mg/kg BCV intraperitoneally twice weekly for 5 weeks, between days 22 and 35 post-implantation
  normalized BLI (proliferation of GBM cells in the brain) compared to the vehicle group: significant (P < 0.05 to P < 0.0001) decrease in normalized BLI
[13]; 40 mg/kg BCV intraperitoneally twice weekly for 5 weeks
  body weight: weight loss was observed
[13]; other BCV-treated groups (10 and 20 mg/kg BCV intraperitoneally twice weekly)
  systemic toxicity symptoms: No remarkable systemic toxicity symptoms were observed

From patent EP4699610A1, “PHARMACEUTICAL COMPOSITION FOR TREATING GLIOMA” (SymBio Pharmaceuticals Limited, priority 2023, dated 2024)
